From PubChem BioAssay AID504462 (Sanford-Burnham Center for Chemical Genomics, 2011)
The list shows a part of the results, in another mix than the full data. Activity calls are given as the source filed them. Cut-off read from the data, not from the text of the source: active = inhibition above about 40%; inactive = the rest.

By UniProt entry, the sequences of proteins in these tests, tags left out.
UniProt Q9Y4P1, whole entry: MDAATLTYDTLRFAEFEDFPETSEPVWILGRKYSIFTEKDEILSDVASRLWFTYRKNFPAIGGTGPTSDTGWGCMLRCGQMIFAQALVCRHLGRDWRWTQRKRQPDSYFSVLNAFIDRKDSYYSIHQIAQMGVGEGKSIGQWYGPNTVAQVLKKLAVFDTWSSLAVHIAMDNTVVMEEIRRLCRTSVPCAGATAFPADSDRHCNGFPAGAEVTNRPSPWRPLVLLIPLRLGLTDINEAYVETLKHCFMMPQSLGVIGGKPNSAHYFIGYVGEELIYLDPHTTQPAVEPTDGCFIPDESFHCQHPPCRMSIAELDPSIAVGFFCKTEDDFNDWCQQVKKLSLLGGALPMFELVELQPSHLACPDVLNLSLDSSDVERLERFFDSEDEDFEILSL

What follows are compounds tested against Cysteine protease ATG4B (Homo sapiens) (UniProt Q9Y4P1) (assay: blockers of ATG4B cysteine protease activity – biochemical, fluorescence, uHTS, primary screen (AID 504462)). Settings: ATG4B cleavage of LC3-PLA2, NBD-HPC fluorescence, 1 h; at 8.33 µM; stronger effect = higher value.

SMILES | inhibition
CCC(=O)N(c1ccccc1)C1(COC)CCN(CCc2cccs2)CC1 | inactive: -7.62%
CCC(=O)N(c1ccccc1)C1(COC)CCN(CCn2nnn(CC)c2=O)CC1 | inactive: -4.44%
